# Test results reported in PubChem BioAssay (NCI).
# Values joined by “and” are separate entries in the source; they are usually repeats but may differ in a detail not shown here. Equal values may be shown once. This is a selection; strong and weak results do not stand in their true shares.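 The test compound was applied at a single concentration to cells in 96-well plates for 48 hours, and percent growth was recorded.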 Active and inactive are the calls of the source. The calls were made as follows: active = growth percent below 10; inactive = the rest.
# System: SF-539 CNS
# Assay: NCI-60 one-dose screen, 48 h (100 = growth as untreated, 0 = no growth, -100 = all killed)
# Conditions: 10 µM
row,Compound,growth
1,NC(=NCCN/C(N)=N/[N+](=O)[O-])N[N+](=O)[O-],inactive: 102%
2,O=[N+]([O-])N(CCN(CC(Br)([N+](=O)[O-])[N+](=O)[O-])[N+](=O)[O-])CC(Br)([N+](=O)[O-])[N+](=O)[O-],inactive: 94.4%
3,CN(C)Nc1c([N+](=O)[O-])cc([N+](=O)[O-])cc1[N+](=O)[O-],inactive: 108%
4,O=[N+]([O-])OCCOc1ccc([N+](=O)[O-])cc1[N+](=O)[O-],inactive: 96.5%
5,N=C(N)N(N)[N+](=O)[O-],inactive: 101%
6,O=[N+]([O-])c1cc([N+](=O)[O-])c(C(F)(F)F)c([N+](=O)[O-])c1O,inactive: 92.8%
7,CCOC(=O)CSc1c(N)c(C)nn1C.O=[N+]([O-])c1cc([N+](=O)[O-])c(O)c([N+](=O)[O-])c1,inactive: 99.2%
8,O=[N+]([O-])c1ccc(OP2(=O)COCCO2)cc1 (stereo not given),inactive: 105%
9,CCN(C)CC.O=[N+]([O-])c1cc([N+](=O)[O-])c(O)c([N+](=O)[O-])c1,inactive: 91.9%
10,OCCSCCO,inactive: 114%
11,CC(C)N1CCN(CCOC(=O)C(O)(c2ccccc2)c2ccccc2)CC1,inactive: 96.3%
12,O=[N+]([O-])c1ccc(Oc2c([N+](=O)[O-])cc([N+](=O)[O-])cc2[N+](=O)[O-])cc1,inactive: 97.5%
13,O=C(Cl)c1c([N+](=O)[O-])cc([N+](=O)[O-])cc1[N+](=O)[O-],inactive: 92.4%
14,O=[N+]([O-])c1cc([N+](=O)[O-])c(Nc2ccc(Cl)cc2)c([N+](=O)[O-])c1,inactive: 12.4%
15,CNc1ccccc1.O=[N+]([O-])c1cc([N+](=O)[O-])c(O)c([N+](=O)[O-])c1,inactive: 106%
16,CCOP(=O)(CC)OCC,inactive: 93.5%

row,Compound,growth
1,O=[N+]([O-])c1cc([N+](=O)[O-])c(O)c([N+](=O)[O-])c1.c1ccnnc1,inactive: 91.8%
2,CCCOP(=S)(Cl)OCCC,inactive: 97.6%
3,CN(C)CCS,inactive: 105% and inactive: 99.6%
4,CCN(CC)CCS,inactive: 90.5%
5,CN(CCCl)CCCCCCCl,inactive: 98.6%
6,Cc1ccc(Nc2c([N+](=O)[O-])cc([N+](=O)[O-])cc2[N+](=O)[O-])cc1,inactive: 102%
7,CN1CCN(CCOC(=O)C(O)(c2ccccc2)c2ccccc2)CC1,inactive: 98.5%
8,NN/C(N)=N/[N+](=O)[O-],inactive: 111%
9,CP(=S)(Cl)N(CCCl)CCCl (stereo not given),inactive: 90.2%
10,CC[N+](C)(CC)Cc1cc(Cc2ccccc2)ccc1OC(=O)N(C)C,inactive: 102%
11,Clc1ccccc1SCCBr,inactive: 107%
12,CP(=O)(OCCCCl)N(CCCl)CCCl (stereo not given),inactive: 101%
13,O=[N+]([O-])c1cccc([N+](=O)[O-])c1O,inactive: 106%
14,COC(=O)C(O)(c1ccccc1)c1ccccc1,inactive: 113%
15,Cc1c([N+](=O)[O-])c(C)c([N+](=O)[O-])c(Nc2c([N+](=O)[O-])c(C)c([N+](=O)[O-])c(C)c2[N+](=O)[O-])c1[N+](=O)[O-],inactive: 12.5%

# System: UACC-257 melanoma
# Assay: as above
# Conditions: 10 µM
row,Compound,growth
1,NC(=NCCN/C(N)=N/[N+](=O)[O-])N[N+](=O)[O-],inactive: 85.8%
2,O=[N+]([O-])N(CCN(CC(Br)([N+](=O)[O-])[N+](=O)[O-])[N+](=O)[O-])CC(Br)([N+](=O)[O-])[N+](=O)[O-],inactive: 85.7%
3,O=[N+]([O-])OCCOc1ccc([N+](=O)[O-])cc1[N+](=O)[O-],inactive: 98.9%
4,N=C(N)N(N)[N+](=O)[O-],inactive: 107%
5,O=[N+]([O-])c1cc([N+](=O)[O-])c(C(F)(F)F)c([N+](=O)[O-])c1O,inactive: 95.6%
6,CCOC(=O)CSc1c(N)c(C)nn1C.O=[N+]([O-])c1cc([N+](=O)[O-])c(O)c([N+](=O)[O-])c1,inactive: 85%
7,O=[N+]([O-])c1ccc(OP2(=O)COCCO2)cc1 (stereo not given),inactive: 111%
8,CCN(C)CC.O=[N+]([O-])c1cc([N+](=O)[O-])c(O)c([N+](=O)[O-])c1,inactive: 111%
9,OCCSCCO,inactive: 113%
10,O=[N+]([O-])c1ccc(Oc2c([N+](=O)[O-])cc([N+](=O)[O-])cc2[N+](=O)[O-])cc1,inactive: 103%
11,O=C(Cl)c1c([N+](=O)[O-])cc([N+](=O)[O-])cc1[N+](=O)[O-],inactive: 41.6%
12,O=[N+]([O-])c1cc([N+](=O)[O-])c(Nc2ccc(Cl)cc2)c([N+](=O)[O-])c1,inactive: 59.1%
13,CNc1ccccc1.O=[N+]([O-])c1cc([N+](=O)[O-])c(O)c([N+](=O)[O-])c1,inactive: 86.7%
14,CCOP(=O)(CC)OCC,inactive: 95.1%
15,O=[N+]([O-])c1cc([N+](=O)[O-])c(O)c([N+](=O)[O-])c1.c1ccnnc1,inactive: 102%
16,CCCOP(=S)(Cl)OCCC,inactive: 109%
17,CN(C)CCS,inactive: 112% and inactive: 91.3%
18,CCN(CC)CCS,inactive: 99.4%
19,CN(CCCl)CCCCCCCl,inactive: 97.2%
20,Cc1ccc(Nc2c([N+](=O)[O-])cc([N+](=O)[O-])cc2[N+](=O)[O-])cc1,inactive: 86.7%
21,CN1CCN(CCOC(=O)C(O)(c2ccccc2)c2ccccc2)CC1,inactive: 116%
22,NN/C(N)=N/[N+](=O)[O-],inactive: 90.6%
23,CP(=S)(Cl)N(CCCl)CCCl (stereo not given),inactive: 97.3%
24,CC[N+](C)(CC)Cc1cc(Cc2ccccc2)ccc1OC(=O)N(C)C,inactive: 109%
25,Clc1ccccc1SCCBr,inactive: 105%
26,CP(=O)(OCCCCl)N(CCCl)CCCl (stereo not given),inactive: 89.7%
27,O=[N+]([O-])c1cccc([N+](=O)[O-])c1O,inactive: 107%
28,COC(=O)C(O)(c1ccccc1)c1ccccc1,inactive: 101%
29,Cc1c([N+](=O)[O-])c(C)c([N+](=O)[O-])c(Nc2c([N+](=O)[O-])c(C)c([N+](=O)[O-])c(C)c2[N+](=O)[O-])c1[N+](=O)[O-],active: -23.9%
